Measured values from PubChem BioAssay (NCI).
Some results for these compounds are left out of this collection, so the calls shown say nothing about other tests.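 Compound exposure: 48 hours, 5 concentrations, 96-well plates. Here, GI50 denotes the concentration required for 50% inhibition of growth.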

Key:
Test in all cases: DTP human tumour cell line panel, 48 h; in the data active = GI50 below about 0.43 µM; inactive = the rest
ACHN renal = system: ACHN renal
LOX IMVI melanoma = system: LOX IMVI melanoma
OVCAR-5 ovarian = system: OVCAR-5 ovarian
RPMI-8226 leukemia = system: RPMI-8226 leukemia
OVCAR-8 ovarian = system: OVCAR-8 ovarian
MCF7 breast = system: MCF7 breast
SF-268 CNS = system: SF-268 CNS
CAKI-1 renal = system: CAKI-1 renal
A549 NSCLC = system: A549 NSCLC
UACC-62 melanoma = system: UACC-62 melanoma
MDA-MB-231 breast = system: MDA-MB-231 breast
U251 CNS = system: U251 CNS
T-47D breast = system: T-47D breast
RXF 393 renal = system: RXF 393 renal
HCT-116 colon = system: HCT-116 colon
MDA-N = system: MDA-N
OVCAR-3 ovarian = system: OVCAR-3 ovarian
TK-10 renal = system: TK-10 renal
COLO 205 colon = system: COLO 205 colon
HCC-2998 colon = system: HCC-2998 colon
SW-620 colon = system: SW-620 colon
KM12 colon = system: KM12 colon
HL-60(TB) leukemia = system: HL-60(TB) leukemia
SK-OV-3 ovarian = system: SK-OV-3 ovarian
SF-295 CNS = system: SF-295 CNS
MALME-3M melanoma = system: MALME-3M melanoma
K-562 leukemia = system: K-562 leukemia
SNB-19 CNS = system: SNB-19 CNS
SK-MEL-28 melanoma = system: SK-MEL-28 melanoma
PC-3 prostate = system: PC-3 prostate
IGROV1 ovarian = system: IGROV1 ovarian
DU-145 prostate = system: DU-145 prostate
NCI/ADR-RES ovarian = system: NCI/ADR-RES ovarian
NCI-H226 lung = system: NCI-H226 lung
UACC-257 melanoma = system: UACC-257 melanoma
HT29 colon = system: HT29 colon
SNB-75 CNS = system: SNB-75 CNS
HOP-62 NSCLC = system: HOP-62 NSCLC
EKVX NSCLC = system: EKVX NSCLC
M14 melanoma = system: M14 melanoma
SF-539 CNS = system: SF-539 CNS
786-0 renal = system: 786-0 renal
UO-31 renal = system: UO-31 renal
SK-MEL-5 melanoma = system: SK-MEL-5 melanoma
CCRF-CEM leukemia = system: CCRF-CEM leukemia
HCT-15 colon = system: HCT-15 colon
NCI-H522 lung = system: NCI-H522 lung
SR leukemia = system: SR leukemia
SN12C renal = system: SN12C renal
NCI-H23 lung = system: NCI-H23 lung

Measured: GI50

CN1CCC(OC(=O)C(O)(c2ccccc2)c2ccns2)CC1 (stereo not given)
inactive: ACHN renal > 100 µM | LOX IMVI melanoma > 100 µM | OVCAR-5 ovarian > 100 µM | RPMI-8226 leukemia > 100 µM | OVCAR-8 ovarian > 100 µM | MCF7 breast > 100 µM | SF-268 CNS > 100 µM | CAKI-1 renal > 100 µM | A549 NSCLC > 100 µM | UACC-62 melanoma > 100 µM | MDA-MB-231 breast > 100 µM | U251 CNS > 100 µM | T-47D breast > 100 µM | RXF 393 renal > 100 µM | HCT-116 colon > 100 µM | MDA-N > 100 µM | OVCAR-3 ovarian > 100 µM | TK-10 renal > 100 µM | COLO 205 colon > 100 µM | HCC-2998 colon > 100 µM | SW-620 colon > 100 µM | KM12 colon > 100 µM | HL-60(TB) leukemia > 100 µM | SK-OV-3 ovarian > 100 µM | SF-295 CNS > 100 µM | MALME-3M melanoma > 100 µM | K-562 leukemia > 100 µM | SNB-19 CNS > 100 µM | SK-MEL-28 melanoma > 100 µM | PC-3 prostate > 100 µM | IGROV1 ovarian > 100 µM | DU-145 prostate > 100 µM | NCI/ADR-RES ovarian > 100 µM | NCI-H226 lung > 100 µM | UACC-257 melanoma > 100 µM | HT29 colon > 100 µM | SNB-75 CNS > 100 µM | HOP-62 NSCLC > 100 µM | EKVX NSCLC > 100 µM | M14 melanoma > 100 µM | SF-539 CNS > 100 µM | 786-0 renal > 100 µM | UO-31 renal > 100 µM | SK-MEL-5 melanoma > 100 µM | CCRF-CEM leukemia > 100 µM | HCT-15 colon > 100 µM | NCI-H522 lung > 100 µM | SR leukemia > 100 µM | SN12C renal > 100 µM | NCI-H23 lung > 100 µM
